Data from patent US12622913B2, “Folate salts for medical use” (APROFOL AG, priority 2018, dated 2026).

Experiment: Solubility determination of selected folate salts in solvents
Format: physicochemical
Settings: mass-% (m/m), 20° C.; for Solubility in DMSO: solvent DMSO; for Solubility in EtOH: solvent EtOH; for Solubility in MeOH: solvent MeOH; for Solubility in Glycerine: solvent glycerine; for Solubility in i-PrOH: solvent i-PrOH; for Solubility in n-PrOH: solvent n-PrOH
Experimental: Solubility determination of selected folate salts was in general performed as follows:
A quantity of the salt corresponding to the expected solubility (between 1-100 mg) was provided and mixed with increments of the respective solvent until a solution was formed.

Row | Substance | Solubility in DMSO [%] | Solubility in EtOH [%] | Solubility in MeOH | Solubility in Glycerine [%] | Solubility in i-PrOH [%] | Solubility in n-PrOH [%]
1 | 5-methyl-(6S)-tetrahydrofolic acid di-metformin salt [MTHF di metformin] | 31.25 | 0.63 | 55.80% | 7.35 | 0.63 | 0.62
2 | 5-Formyl-(6S)-tetrahydrofolic acid di-choline salt [FTHF di choline] | 0.25 | >50 | >>50% | 28.41 | 0.32 | 0.31
3 | 5-formyl-(6S)-tetrahydrofolic acid di metformin salt [FTHF di metformin] | 0.25 | 0.63 | 55.80% | 7.35 | 0.63 | 0.62
